Results published in US20130171069A1.

Legend:
[1] = target: Na+/K+-ATPase alpha3 subunit (NAKalpha3) of mature rat hippocampus-derived primary cultured neurons (rat) (UniProt P06687); assay: cell-based or functional assay
[2] = target: Na+/K+-ATPase alpha3 subunit (NAKalpha3) of mature rat hippocampus-derived primary cultured neurons (rat) (UniProt P06687); assay: Scatchard plot; synthetic ASPD on mature rat hippocampal neurons, bound ASPD measured with anti-ASPD antibodies

- NAKα3 activity (ouabain-sensitive ATPase activity of cell membranes about 24 hours after ASPD) [1]: < 20%
- Kd [2]: 150 nM
Substance: synthetic amylospheroid (synthetic ASPD) (from UniProt P05067 672-713)
